Experimental findings from ChEMBL document CHEMBL6074671, “Discovery of Pyridine-2-Carboxamides Derivatives as Potent and Selective HPK1 Inhibitors for the Treatment of Cancer” (J Med Chem, 2024) are described below.

Sequences of proteins named here, by UniProt entry; tags and fusion partners are left off. A change or cut given only in a name is not applied to a line headed by its entry.
UniProt P70218, whole entry: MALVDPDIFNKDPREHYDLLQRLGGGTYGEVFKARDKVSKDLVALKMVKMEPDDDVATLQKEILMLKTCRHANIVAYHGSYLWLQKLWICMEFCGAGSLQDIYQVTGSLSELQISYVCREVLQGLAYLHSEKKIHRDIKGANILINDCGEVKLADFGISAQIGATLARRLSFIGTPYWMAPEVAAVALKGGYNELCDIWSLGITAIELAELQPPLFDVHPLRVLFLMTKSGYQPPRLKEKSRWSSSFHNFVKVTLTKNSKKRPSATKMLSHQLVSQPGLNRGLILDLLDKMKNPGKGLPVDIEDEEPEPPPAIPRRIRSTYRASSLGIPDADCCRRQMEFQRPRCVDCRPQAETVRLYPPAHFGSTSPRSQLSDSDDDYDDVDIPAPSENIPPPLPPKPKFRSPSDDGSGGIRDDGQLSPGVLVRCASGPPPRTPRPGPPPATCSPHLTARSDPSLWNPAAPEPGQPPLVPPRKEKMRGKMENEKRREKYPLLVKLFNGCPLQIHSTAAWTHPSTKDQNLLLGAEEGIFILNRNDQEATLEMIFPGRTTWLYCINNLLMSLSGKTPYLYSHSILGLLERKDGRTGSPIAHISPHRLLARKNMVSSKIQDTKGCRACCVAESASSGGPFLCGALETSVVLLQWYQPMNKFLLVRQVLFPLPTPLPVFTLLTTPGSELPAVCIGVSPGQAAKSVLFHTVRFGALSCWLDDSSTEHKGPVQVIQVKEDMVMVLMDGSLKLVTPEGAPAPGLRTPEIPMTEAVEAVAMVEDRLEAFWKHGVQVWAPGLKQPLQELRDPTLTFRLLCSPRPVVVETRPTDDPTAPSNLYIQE
UniProt P06239: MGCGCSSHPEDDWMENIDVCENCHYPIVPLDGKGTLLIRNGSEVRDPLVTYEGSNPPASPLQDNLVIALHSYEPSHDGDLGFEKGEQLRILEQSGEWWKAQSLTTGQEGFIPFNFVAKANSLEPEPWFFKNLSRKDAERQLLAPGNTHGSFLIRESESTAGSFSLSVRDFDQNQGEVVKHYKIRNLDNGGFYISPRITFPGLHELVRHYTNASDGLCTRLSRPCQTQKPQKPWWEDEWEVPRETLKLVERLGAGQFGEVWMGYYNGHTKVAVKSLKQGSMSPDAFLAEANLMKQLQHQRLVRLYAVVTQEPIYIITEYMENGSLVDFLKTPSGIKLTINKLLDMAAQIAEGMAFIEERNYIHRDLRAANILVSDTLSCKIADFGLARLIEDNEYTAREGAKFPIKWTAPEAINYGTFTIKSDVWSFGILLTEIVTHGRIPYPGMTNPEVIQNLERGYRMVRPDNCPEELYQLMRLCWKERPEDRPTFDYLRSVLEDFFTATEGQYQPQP

The inhibition is the share of the control response that was lost under treatment.

Calls of active or inactive are those of the source. The calls are words filed in the database; no cut-off is given here.

For assay [1], the species on record is Homo sapiens. Briefly: Selectivity ratio of IC50 for human recombinant full length GST tagged N-terminal MAP4K2 (1 to 820 end residues) to IC50 for human recombinant wild type N-terminal HPK1 (1 to 346 residues).
The species named for assay [2] is Homo sapiens. Briefly: Selectivity ratio of IC50 for human recombinant GST-tagged MAP4K3 (1 to 30 residues) to IC50 for human recombinant wild type N-terminal HPK1 (1 to 346 residues).
Assay [3] in a line: Selectivity ratio of IC50 for catalytic domain N-terminal GST tagged MAP4K4 (1 to 328 residues) (unknown origin) to IC50 for human recombinant wild type N-terminal HPK1 (1 to 346 residues).
Assay [4] is filed under the species Homo sapiens. Briefly: Selectivity ratio of IC50 for human GST-tagged full length recombinant MAP4K5 to IC50 for human recombinant wild type N-terminal HPK1 (1 to 346 residues).
The species entered for assay [5] is Homo sapiens. In words: Selectivity ratio of IC50 for catalytic domain human GST-tagged N-terminal MAP4K6 (1 to 314 residues) to IC50 for human recombinant wild type N-terminal HPK1 (1 to 346 residues).
Assay [6] can be described thus: Selectivity ratio of IC50 for FYN (unknown origin) to IC50 for human recombinant wild type N-terminal HPK1 (1 to 346 residues).
A short description of assay [7]: Selectivity ratio of IC50 for LCK (unknown origin) to IC50 for human recombinant wild type N-terminal HPK1 (1 to 346 residues).
Assay [8] can be described thus: Selectivity ratio of IC50 for SYK (unknown origin) to IC50 for human recombinant wild type N-terminal HPK1 (1 to 346 residues).
Assay [9] in a line: Selectivity ratio of IC50 for LYNa (unknown origin) to IC50 for human recombinant wild type N-terminal HPK1 (1 to 346 residues).
Assay [10] is described as follows: Selectivity ratio of IC50 for MSTI (unknown origin) to IC50 for human recombinant wild type N-terminal HPK1 (1 to 346 residues).
Assay [11] can be described thus: Selectivity ratio of IC50 for MST2 (unknown origin) to IC50 for human recombinant wild type N-terminal HPK1 (1 to 346 residues).
The nature of assay [12]: Selectivity ratio of IC50 for CDK2 (unknown origin) to IC50 for human recombinant wild type N-terminal HPK1 (1 to 346 residues).
A short description of assay [13]: Selectivity ratio of IC50 for IRAK4 (unknown origin) to IC50 for human recombinant wild type N-terminal HPK1 (1 to 346 residues).
Assay [14] in a line: Selectivity ratio of IC50 for FLT3 (unknown origin) to IC50 for human recombinant wild type N-terminal HPK1 (1 to 346 residues).
A short description of assay [15]: Selectivity ratio of IC50 for JAK1 (unknown origin) to IC50 for human recombinant wild type N-terminal HPK1 (1 to 346 residues).
Assay [16] can be described thus: Selectivity ratio of IC50 for JAK2 (unknown origin) to IC50 for human recombinant wild type N-terminal HPK1 (1 to 346 residues).
Assay [17] is described as follows: Selectivity ratio of IC50 for JAK3 (unknown origin) to IC50 for human recombinant wild type N-terminal HPK1 (1 to 346 residues).
Assay [18] is described as follows: Selectivity ratio of IC50 for TYK2 (unknown origin) to IC50 for human recombinant wild type N-terminal HPK1 (1 to 346 residues).
Assay [19] is described as follows: Selectivity ratio of IC50 for PAK1 (unknown origin) to IC50 for human recombinant wild type N-terminal HPK1 (1 to 346 residues).
Assay [20] in a line: Selectivity ratio of IC50 for PAK2 (unknown origin) to IC50 for human recombinant wild type N-terminal HPK1 (1 to 346 residues).
The nature of assay [21]: Selectivity ratio of IC50 for PAK3 (unknown origin) to IC50 for human recombinant wild type N-terminal HPK1 (1 to 346 residues).
Assay [22] in a line: Selectivity ratio of IC50 for TAK1 (unknown origin) to IC50 for human recombinant wild type N-terminal HPK1 (1 to 346 residues).
The nature of assay [23]: Selectivity ratio of IC50 for ITK (unknown origin) to IC50 for human recombinant wild type N-terminal HPK1 (1 to 346 residues).
The nature of assay [24]: Selectivity ratio of IC50 for p38 alpha (unknown origin) to IC50 for human recombinant wild type N-terminal HPK1 (1 to 346 residues).
Assay [25] can be described thus: Selectivity ratio of IC50 for TAOK2 (unknown origin) to IC50 for human recombinant wild type N-terminal HPK1 (1 to 346 residues).
Assay [26] can be described thus: Selectivity ratio of IC50 for PLK4 (unknown origin) to IC50 for human recombinant wild type N-terminal HPK1 (1 to 346 residues).
Assay [27] is described as follows: Selectivity ratio of IC50 for SRC (unknown origin) to IC50 for human recombinant wild type N-terminal HPK1 (1 to 346 residues).
Assay [28] is described as follows: Selectivity ratio of IC50 for RET (unknown origin) to IC50 for human recombinant wild type N-terminal HPK1 (1 to 346 residues).
The nature of assay [29]: Selectivity ratio of IC50 for ABL (unknown origin) to IC50 for human recombinant wild type N-terminal HPK1 (1 to 346 residues).
Assay [30] is described as follows: Selectivity ratio of IC50 for BLK (unknown origin) to IC50 for human recombinant wild type N-terminal HPK1 (1 to 346 residues).
For assay [31], the system named is CT26. Briefly: Antitumor activity against mouse CT26 cells implanted in Balb/c mouse model assessed as reduction in tumor growth administered as po dose BID measured after 15 days. The class given is functional, organism-based. The following applies: dose lower […], dose upper 12.0 mg/kg, time 15.0 day.
For assay [32], the system named is CT26. In words: Synergistic antitumor activity against mouse CT26 cells implanted in Balb/c mouse model assessed as reduction in tumor growth administered as po dose BID measured after 15 days in presence of anti-PD1. The following applies: dose lower […], dose upper 12.0 mg/kg, time 15.0 day. Type of assay: functional, organism-based.
For assay [33], the system named is CT26. In words: Synergistic antitumor activity against mouse CT26 cells implanted in Balb/c mouse model assessed as reduction in M2-like macrophage at 1.5 to 12 mg/kg, po BID in presence of anti-PD1. The class given is functional, organism-based. To be noted: dose lower […], dose upper 12.0 mg/kg.
Assay [34] deals with Mitogen-activated protein kinase kinase kinase kinase 1 (Mus musculus) (UniProt P70218). Briefly: In vivo inhibition of HPK1 in Balb/c mouse implanted with mouse CT26 cells assessed as reduction in pSLP76 level in CD4+ T-cells administered as po BID. The class given is functional, organism-based. To be noted: dose lower […], dose upper 12.0 mg/kg.
The target is the same in assay [35]. In words: In vivo inhibition of HPK1 in Balb/c mouse implanted with mouse CT26 cells assessed as reduction in pSLP76 level in CD8+ T-cells administered as po BID. The class given is functional, organism-based. The following applies: dose lower […], dose upper 12.0 mg/kg.
Assay [36] deals with MC-38. In words: Synergistic antitumor activity against mouse MC38 cells implanted in C57BL/6 mouse model assessed as reduction in M2-like macrophage at 3 mg/kg, po BID in presence of anti-PD1. The class given is functional, organism-based.
Assay [37] concerns the target Mitogen-activated protein kinase kinase kinase kinase 1 (Mus musculus) (UniProt P70218). In words: In vivo inhibition of HPK1 in C57BL/6 mouse implanted with mouse MC38 cells assessed as reduction in pSLP76 level in CD4+ T-cells administered as po BID. Type of assay: functional, organism-based. To be noted: dose 3-10 mg/kg.
Assay [38] shares this target. Briefly: In vivo inhibition of HPK1 in C57BL/6 mouse implanted with mouse MC38 cells assessed as reduction in pSLP76 level in CD8+ T-cells administered as po BID. The class given is functional, organism-based. The following applies: dose 3-10 mg/kg.
Assay [39] deals with Tyrosine-protein kinase Lck (Homo sapiens, UniProt P06239). Briefly: Inhibition of LCK (unknown origin) at 10 uM relative to control.
For assay [40], the target named is Mitogen-activated protein kinase kinase kinase kinase 1 (Mus musculus) (UniProt P70218). Briefly: In vivo inhibition of HPK1 in Balb/c mouse implanted with mouse CT26 cells assessed as reduction in pSLP76 level in spleen at 3 mg/kg, po measured over 6 hrs. Type of assay: functional, organism-based.
Assay [41] deals with T-cell. Briefly: Inhibition of anti-CD3 stimulated human T cell proliferation at high concentration incubated for 72 hrs by luminescence based analysis. Type of assay: functional.
For assay [42], the system named is T-cell. Briefly: Inhibition of anti-CD3 stimulated human T cell proliferation assessed as reduction in cell viability at […] incubated for 72 hrs by luminescence based analysis. Type of assay: functional. The following applies: dose 1.11 µM.

On to `COc1cc(Nc2ccc3c(n2)CN(C)C32CCN(C3COC3)CC2)c(C(N)=O)nc1-c1cccc2c1ncn2C`, for which the Ratio IC50 in assay [1] was above 3410; in [2], above 637; in assay [3], above 739; in assay [4] it was above 363; in assay [5], above 227; in [6], above 19600. The Ratio IC50 in [7] was above 1020; in assay [8], above 19600; in [9], above 10100; in assay [10], above 980; in [11], above 19600; in assay [12], above 19600. Besides, the Ratio IC50 in assay [13] is above 6860; in assay [14] it was above 621; in assay [15], above 19600; in [16] it was above 19600; in [17] it was above 19600; in [18], above 19600. Moreover, the Ratio IC50 in [19], in assay [20], in assay [21], in assay [22], in assay [23] and in [24] was above 19600 each time. Moreover, the Ratio IC50 in assay [25] was above 19600; in assay [26], above 19600; in assay [27], above 4140; in [28] it was above 5870; in assay [29] it was above 8660; in assay [30] it was above 3700. In addition, the Activity result in assay [31], in assay [32], in assay [34], in assay [35], in assay [37] and in assay [38] was “Dose-dependent-effect” each time. The result in [33] and in [36] was Active. In assay [39], this compound showed an inhibition above 50%. Besides, the outcome in [40] was inactive.

For the compound `CN(C)Cc1nc(Nc2ccc(-c3cnc4cc(F)ccn34)c3c2C(=O)NC3)ccc1C1CCOCC1`, the inhibition entry in assay [41] and in [42] was “Active” throughout.
